{
  "source": "PubChem BioAssay AID504615",
  "about": "(Sanford-Burnham Center for Chemical Genomics, 2011)",
  "note": "Only a part is listed here, and it is no random draw. Active and inactive are the calls of the source.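 Rule for the calls: active = signal rise of 40% or more at 20 µM, treated as a fluorescence artifact; inactive = the rest.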",
  "data": [
    {"assay": "detection-step artefacts after completed caspase reaction – biochemical, fluorescence, Rh110, 20 µM, artefact control for Apaf-1 inhibitor project, confirmation (AID 504615)", "details": "quenched caspase reaction, at 20 µM, active compounds read high", "values": [
      {"molecule": "CC1=C2N=C(C=C3N=C(C(C)=C4[N-][C@@](C)([C@@H]5N=C1[C@](C)(CCC(=O)NC[C@@H](C)OP(=O)([O-])O[C@H]1[C@@H](O)[C@@H](n6cnc7cc(C)c(C)cc76)O[C@@H]1CO)[C@H]5CC(N)=O)[C@@](C)(CC(N)=O)[C@@H]4CCC(N)=O)[C@@](C)(CC(N)=O)[C@@H]3CCC(N)=O)C(C)(C)[C@@H]2CCC(N)=O.[C-]#N.[Co+3]", "activation (fluorescence interference)": "inactive: -4.36%"},
      {"molecule": "O=[N+]([O-])c1cc([N+](=O)[O-])c(Nc2ccccn2)c([N+](=O)[O-])c1", "activation (fluorescence interference)": "inactive: 3.29%"}
    ]}
  ]
}
